The test concerns the target Type-1 angiotensin II receptor (Homo sapiens, UniProt P30556).

One may read the Ki as the equilibrium dissociation constant of an inhibitor or competing ligand from its target.

Each structure is given as a SMILES string.

Take `CCCCc1nc(Cl)c(C(=O)O)n1Cc1ccc(-c2ccccc2-c2nn[nH]n2)cc1` [2-Butyl-5-chloro-3-[2'-(1H-tetrazol-5-yl)-biphenyl-4-ylmethyl]-3H-imidazole-4-carboxylic acid]: the affinity corresponds to a Ki of 0.67 nM.

The record behind these values is BindingDB's records for doi:10.1046/j.1472-8206.2002.00076.x (Shinshu University, 2002).
